Data reported in ChEMBL document CHEMBL1124043, “Pyrido[2,1-b]quinazolinecarboxamide derivatives as platelet activating factor antagonists” (J Med Chem, 1988).

System: Platelet-activating factor receptor (Canis familiaris)
Test: Percent inhibition of binding of platelet activating factor (PAF) to dog platelets using [3H]PAF as radioligand at a concentration of 1 uM
Details: Canis lupus familiaris

Cc1cc2nc3ccc(C(=O)NCCCCCC[n+]4ccccc4)cn3c(=O)c2cc1C
inhibition: 9%

CC(C)c1ccc2nc3ccc(C(=O)OCCCCc4cccnc4)cn3c(=O)c2c1
inhibition: 16%
